Values of other authors in patent US4584404A, “Substituted phenoxyphenylproply dimethylamines” (priority 1983, dated 1986).

Tested on: 5HT uptake vs NE uptake
Conditions: cited from earlier work

CNCCC(Oc1ccc(C(F)(F)F)cc1)c1ccccc1 (centres unmarked) [fluoxetine, 3-phenyl-3-(p-trifluoromethyl)phenoxypropyl methylamine]
uptake inhibition in words, earlier patents (5HT, NE, dopamine): selective 5HT uptake inhibitor
ratio of the 50% inhibitory concentrations for 5HT uptake vs NE uptake (x to 1, 0.06 to 20): about 333
